Experimental data published in PubChem BioAssay AID1117263 (The Scripps Research Institute Molecular Screening Center, 2014).
Only a part is listed here, and it is no random draw. Some tests of the compounds listed are not included; inactive here does not mean inactive elsewhere. Calls of active or inactive are those of the source.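 The calls were made as follows: active = mean inhibition of the replicates above the hit cutoff set in the primary screen (cut at about 17% in these data); inactive = the rest.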

By UniProt entry, the sequences of proteins in these tests, tags left out.
UniProt Q9HAT2, whole entry: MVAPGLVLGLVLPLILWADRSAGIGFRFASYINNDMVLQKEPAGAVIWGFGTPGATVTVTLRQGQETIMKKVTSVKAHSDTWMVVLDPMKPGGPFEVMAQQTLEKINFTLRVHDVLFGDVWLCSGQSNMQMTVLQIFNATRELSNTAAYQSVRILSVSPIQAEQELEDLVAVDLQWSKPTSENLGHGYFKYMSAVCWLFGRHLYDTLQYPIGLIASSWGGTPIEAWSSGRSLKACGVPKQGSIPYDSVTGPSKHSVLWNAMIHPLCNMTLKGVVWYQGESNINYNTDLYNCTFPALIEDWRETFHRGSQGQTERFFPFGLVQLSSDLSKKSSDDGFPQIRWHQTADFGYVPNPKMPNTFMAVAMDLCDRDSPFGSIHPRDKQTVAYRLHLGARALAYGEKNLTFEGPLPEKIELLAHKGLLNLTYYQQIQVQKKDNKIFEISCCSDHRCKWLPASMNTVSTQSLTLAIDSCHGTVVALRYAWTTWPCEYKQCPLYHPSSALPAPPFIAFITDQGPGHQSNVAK

target: Sialate O-acetylesterase (Homo sapiens) (UniProt Q9HAT2); test: sialate O-acetylesterase blockers re-tested – biochemical, fluorescence polarization, FP-Rh probe, triplicate, confirmation (AID 1117263); details: SIAE FP-Rh activity-based probe, at 9.66 µM, active compounds read high;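 also: 0% = SIAE with DMSO and probe and 100% = probe without SIAE; inhibitors lower polarization as more probe stays unbound to SIAE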

Structure (SMILES) | inhibition
CC(C)N1C(=O)CC2(CCN(CCOC(=O)C(O)(c3ccccc3)c3ccccc3)CC2)C1=O | inactive: -0.19%
